Literature values as cited in patent US7902185B2, “Treatment of neurodegenerative diseases using proteasome modulators” (ALS Therapy Development Foundation, Inc., priority 2002, dated 2011).

System: patients with ALS
Conditions: human, in vivo; cited from earlier work

Compound: Nc1nc2ccc(OC(F)(F)F)cc2s1 [Riluzole]
- survival of ALS patients: appears to extend the life of at least some patients
